We go through one compound from ChEMBL document CHEMBL3632521, “A study of ad-proline peptidomimetic inhibitor of melanoma and endothelial cell invasion through activity towards MMP-2 and MMP-9” (Medchemcomm, 2015).

Sequences of proteins named here, by UniProt entry; tags and fusion partners are left off. A change or cut given only in a name is not applied to a line headed by its entry.
UniProt P08253: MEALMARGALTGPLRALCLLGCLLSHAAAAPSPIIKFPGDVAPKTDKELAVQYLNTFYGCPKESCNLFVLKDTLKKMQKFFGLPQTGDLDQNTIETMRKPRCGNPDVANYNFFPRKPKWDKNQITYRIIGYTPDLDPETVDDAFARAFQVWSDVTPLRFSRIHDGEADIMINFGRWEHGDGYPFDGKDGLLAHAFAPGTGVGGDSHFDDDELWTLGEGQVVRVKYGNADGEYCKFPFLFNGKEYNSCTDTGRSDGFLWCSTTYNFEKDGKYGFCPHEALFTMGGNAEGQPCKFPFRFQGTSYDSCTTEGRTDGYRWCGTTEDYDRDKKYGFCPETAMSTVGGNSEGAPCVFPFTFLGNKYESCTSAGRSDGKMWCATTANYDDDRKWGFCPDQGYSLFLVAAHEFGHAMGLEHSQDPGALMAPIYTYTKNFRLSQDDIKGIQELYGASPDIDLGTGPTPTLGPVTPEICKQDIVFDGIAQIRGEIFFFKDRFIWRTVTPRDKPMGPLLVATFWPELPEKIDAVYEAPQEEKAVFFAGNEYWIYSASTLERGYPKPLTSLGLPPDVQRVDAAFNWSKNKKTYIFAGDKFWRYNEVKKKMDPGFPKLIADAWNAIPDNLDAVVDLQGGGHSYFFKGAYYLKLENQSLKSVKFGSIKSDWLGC

The structures appear in SMILES notation. Activity calls are given as the source filed them. The rule behind the calls is not given here.

Assay [1] has as its target T1, 72 kDa type IV collagenase (Homo sapiens, UniProt P08253). The following applies: A375P, 20 uM.
Assay [2] has as its target T1, 72 kDa type IV collagenase. The following applies: 20 uM.

For `COc1ccc(C(=O)N[C@@H]2C[C@H](C(=O)NO)N(S(=O)(=O)c3ccc(Cl)c(Cl)c3)C2)c(OC)c1`, the inhibition result in assay [1] and in assay [2] was “Active” each time.
